Source: patent publication EP0939649B1, “ADDITIVE, IN PARTICULAR IN THE FORM OF AN EMULSION CONTAINING A TRIVALENT METAL CATION AND VACCINE COMPOSITION CONTAINING SAME” (priority 1996, dated 1998)

Test: Local reactions (lesions and granulomas) at the injection site after subcutaneous injection in mice
Type: in vivo, souris
Conditions: 8 days after s.c. injection, 1000 µl, 10 µg BSA
Experimental: On a injecté à différents lots comprenant chacun 5 souris, une composition thérapeutique d'un volume de 1000 µl, comprenant 10 µg d'antigène (BSA), par voie sous-cutanée. On a évalué les réactions locales (lésions et granulomes) 8 jours après injection.

Measured: réactions locales (lésions et granulomes)

salicylate d'Aluminium
0: souris 1 | souris 3 | souris 4 | souris 5
